From US5534497A, “Technetium chelates to be used for determining the renal function” (Mallinckrodt Medical, Inc., priority 1986, dated 1996)

Experiment: Biodistribution in mice by organ uptake measurements, relative to Tc99m-MAG3 (iodo-131-Hippuran as reference standard)
Type: in vivo
Details: for Blood: ratio of uptake of compound to uptake of Tc99m-MAG3 / Hepatic (system): ratio of uptake of compound to uptake of Tc99m-MAG3 / Intestines: ratio of uptake of compound to uptake of Tc99m-MAG3 / Kidneys: ratio of uptake of compound to uptake of Tc99m-MAG3 / Liver: ratio of uptake of compound to uptake of Tc99m-MAG3 / Remainder / Rest of the body: ratio of uptake of compound to uptake of Tc99m-MAG3 / Renal (system): ratio of uptake of compound to uptake of Tc99m-MAG3 / Stomach: ratio of uptake of compound to uptake of Tc99m-MAG3 / Urine: ratio of uptake of compound to uptake of Tc99m-MAG3: intravenous, 10 minutes after administration, each normalised to iodo-131-Hippuran; for Secretion characteristics / organ distribution compared with Tc99m-MAG3 (in words): secretion in urine, retention in kidneys, liver, intestines
Protocol: Tc99m-MAGAG-DA, separated by HPLC, is diluted with physiological saline solution to a concentration of 370 kilobecquerel per mi. Iodo-131-Hippuran is added to this solution as a reference standard. An amount of 0.1 ml of this mixture is injected intravenously into each of the eight mice, so that 37 kilobecquerel of Tc99m-MAGAG-DA and 18.5 kilobecquerel of iodo-131-Hippuran are injected per animal. Measures are taken to collect all the excreted urine. 10 Minutes after the administration the mice are sacrificed. It is ensured that all the blood is collected. All parts of the body are brought in separate tubes and the activity of Tc99m and I131 is determined for each part of the body. From the measured results the relative quantity of both tracer products in urine, kidneys, intestines. liver, blood and the collective remainder of the body is computed. In the same manner, Tc99m-MAGA-DB, separated by HPLC, and Tc99m-mercaptoacetylglycylglycylglycine (Tc99m-MAG3), purified by HPLC, both with iodo-131-Hippuran as a reference standard, are tested in two other groups of 8 and 6 mice, respectively. For all three Tc99m-labelled compounds -- MAGAG-DA, MAGAG-DB and MAG3 -- the relative percentages of Tc99m activity in the various organs are calculated with respect to iodo-131-Hippuran. After this, the ratios of Tc99m-MAGAG-DA and -DB can be calculated with respect to Tc99m-MAG3 in the various organs.
In the same ray as described in Example III the biodistribution of the above compound in mice is determined relative to that of Tc99m-MAG3 by organ uptake measurements.
In the same way as described in Example III the biodistribution of the above compound in mice is determined relative to that of Tc99m-MAG3 by organ uptake measurements.

## Tc99m-mercaptoacetylglycyl-D-serylglycine [Tc99m-MAGSERG-DA]
  Blood: ratio of uptake of compound to uptake of Tc99m-MAG3: 0.98
  Hepatic (system): ratio of uptake of compound to uptake of Tc99m-MAG3: 0.43
  Intestines: ratio of uptake of compound to uptake of Tc99m-MAG3: 0.48
  Kidneys: ratio of uptake of compound to uptake of Tc99m-MAG3: 0.44
  Liver: ratio of uptake of compound to uptake of Tc99m-MAG3: 0.39
  Remainder / Rest of the body: ratio of uptake of compound to uptake of Tc99m-MAG3: 1.38
  Renal (system): ratio of uptake of compound to uptake of Tc99m-MAG3: 1.03
  Stomach: ratio of uptake of compound to uptake of Tc99m-MAG3: 0.70
  Urine: ratio of uptake of compound to uptake of Tc99m-MAG3: 1.13
  Secretion characteristics / organ distribution compared with Tc99m-MAG3 (in words): significantly better than those of Tc99m-MAG3

## Tc99m-mercaptoacetylglycyl-D-serylglycine [Tc99m-MAGSERG-DB]
  Blood: ratio of uptake of compound to uptake of Tc99m-MAG3: 0.94
  Hepatic (system): ratio of uptake of compound to uptake of Tc99m-MAG3: 0.67
  Intestines: ratio of uptake of compound to uptake of Tc99m-MAG3: 0.47
  Kidneys: ratio of uptake of compound to uptake of Tc99m-MAG3: 0.42
  Liver: ratio of uptake of compound to uptake of Tc99m-MAG3: 0.72
  Remainder / Rest of the body: ratio of uptake of compound to uptake of Tc99m-MAG3: 1.23
  Renal (system): ratio of uptake of compound to uptake of Tc99m-MAG3: 1.01
  Stomach: ratio of uptake of compound to uptake of Tc99m-MAG3: 0.66
  Urine: ratio of uptake of compound to uptake of Tc99m-MAG3: 1.10
  Secretion characteristics / organ distribution compared with Tc99m-MAG3 (in words): significantly better than those of Tc99m-MAG3
